Results as given in patent US20250122218A1, “MODULATORS OF CYSTIC FIBROSIS TRANSMEMBRANE CONDUCTANCE REGULATOR” (Vertex Pharmaceuticals Incorporated, priority 2022, published 2025).

Chains of the proteins cited; added tags and fusions are not shown. A line that says so, or that is headed by a name, gives the form on record, which may keep a tag or linker.
UniProt P13569, with tags, fused parts or gaps DEL508-508: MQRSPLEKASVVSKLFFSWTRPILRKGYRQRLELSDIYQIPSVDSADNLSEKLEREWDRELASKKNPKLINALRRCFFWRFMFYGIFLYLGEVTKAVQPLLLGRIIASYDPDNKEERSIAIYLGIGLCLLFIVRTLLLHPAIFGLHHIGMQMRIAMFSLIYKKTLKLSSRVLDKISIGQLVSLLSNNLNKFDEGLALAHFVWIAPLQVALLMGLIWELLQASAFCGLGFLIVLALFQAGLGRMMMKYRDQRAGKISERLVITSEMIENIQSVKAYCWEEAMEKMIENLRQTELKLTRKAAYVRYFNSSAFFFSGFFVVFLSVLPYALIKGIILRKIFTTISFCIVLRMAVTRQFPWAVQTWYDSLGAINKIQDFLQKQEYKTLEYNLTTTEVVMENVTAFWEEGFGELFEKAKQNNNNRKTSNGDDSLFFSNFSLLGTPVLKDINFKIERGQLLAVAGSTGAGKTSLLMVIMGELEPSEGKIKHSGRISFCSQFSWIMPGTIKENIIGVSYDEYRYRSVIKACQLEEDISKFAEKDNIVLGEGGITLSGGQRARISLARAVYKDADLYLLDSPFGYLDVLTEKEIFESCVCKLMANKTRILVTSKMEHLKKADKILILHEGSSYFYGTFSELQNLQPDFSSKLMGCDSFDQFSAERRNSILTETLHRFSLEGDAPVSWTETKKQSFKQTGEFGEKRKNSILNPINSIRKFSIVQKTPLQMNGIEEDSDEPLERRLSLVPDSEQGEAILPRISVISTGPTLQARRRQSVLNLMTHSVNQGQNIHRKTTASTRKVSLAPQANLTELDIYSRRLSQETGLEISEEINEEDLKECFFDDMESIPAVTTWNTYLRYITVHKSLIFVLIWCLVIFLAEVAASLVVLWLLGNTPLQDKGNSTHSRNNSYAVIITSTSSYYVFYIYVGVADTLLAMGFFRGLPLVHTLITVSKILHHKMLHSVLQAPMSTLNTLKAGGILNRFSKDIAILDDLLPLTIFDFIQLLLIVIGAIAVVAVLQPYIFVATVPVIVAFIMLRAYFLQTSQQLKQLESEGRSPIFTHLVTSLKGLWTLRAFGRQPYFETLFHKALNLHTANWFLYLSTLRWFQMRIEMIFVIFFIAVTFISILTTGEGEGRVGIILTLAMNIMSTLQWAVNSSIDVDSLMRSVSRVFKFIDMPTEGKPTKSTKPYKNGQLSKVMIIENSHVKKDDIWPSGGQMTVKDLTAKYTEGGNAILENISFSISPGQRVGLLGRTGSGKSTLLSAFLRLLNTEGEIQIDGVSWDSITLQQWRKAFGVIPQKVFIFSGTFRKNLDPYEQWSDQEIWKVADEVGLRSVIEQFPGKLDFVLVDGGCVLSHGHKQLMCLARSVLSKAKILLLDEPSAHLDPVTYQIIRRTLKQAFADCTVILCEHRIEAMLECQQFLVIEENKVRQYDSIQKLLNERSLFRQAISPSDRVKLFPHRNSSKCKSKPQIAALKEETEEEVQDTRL

Molecular target: CFTR in F508del/MF-HBE cells (Homo sapiens, UniProt P13569, DEL508-508)
Experiment: Ussing chamber assay of CFTR-mediated short-circuit currents (identification of potentiator compounds)
Conditions: potentiator incubated 18-24 hours at 37° C. in combination with 10 μM corrector, in the presence of 20% human serum, CFTR-mediated ISC
Method: Ussing chamber experiments were performed using human bronchial epithelial (HBE) cells derived from CF subjects heterozygous for F508del and a minimal function CFTR mutation (F508del/MF-HBE) and cultured as previously described (Neuberger T, Burton B, Clark H, Van Goor F; Methods Mol. Biol. 2011:741:39-54). After four days the apical media was removed, and the cells were grown at an air liquid interface for >14 days prior to use.
To isolate the CFTR-mediated short-circuit (ISC) current, F508del/MF-HBE grown on Costar® Snapwell™ cell culture inserts were mounted in an Ussing chamber and the transepithelial ISC was measured under voltage-clamp recording conditions (Vhold=0 mV) at 37° C. The basolateral solution contained (in mM) 145 NaCl, 0.83 K2HPO4, 3.3 KH2PO4, 1.2 MgCl2, 1.2 CaCl2), 10 Glucose, 10 HEPES (pH adjusted to 7.4 with NaOH) and the apical solution contained (in mM) 145 NaGluconate, 1.2 MgCl2, 1.2 CaCl2), 10 glucose, 10 HEPES (pH adjusted to 7.4 with NaOH) and 30 μM amiloride to block the epithelial sodium channel. […] The CFTR-mediated ISC (μA/cm^2) for each condition was determined from the peak forskolin response to the steady-state current following inhibition.
The activity of the CFTR potentiator compounds on the CFTR-mediated ISC was determined in Ussing chamber studies as described above. […]

EC50: < 500 nM
SMILES: CC(C)(c1ccc(CN2CCCCC[C@](O)(C(F)(F)F)C3=NN=C(O3)c3nc(c(C(F)(F)F)cc3N)C2=O)cc1)C(F)(F)F
